# In paper PMC8298264, “Function of cofactor Akirin2 in the regulation of gene expression in model human neutrophil-like HL60 cells” (Bioscience Reports, 2021):
# System: human HL60 cells
# Assay: SWATH-MS proteomics, differential protein representation, akirin2 KO vs WT HL60 cells
# Assay type: cell-based
# Settings: akirin2 KO vs WT HL60 cells
# Procedure: Total proteins were extracted from WT and akirin2 KO HL60 cells using the AllPrep DNA/RNA/Protein Mini Kit (Qiagen) and protein concentration was determined using the BCA Protein Assay with BSA (Sigma–Aldrich) as standard. Protein extracts (150 µg per sample, n=3 biological replicates) from each WT and KO cells were trypsin digested using the FASP Protein Digestion Kit (Expedeon Ltd., Abcam, Cambridge, U.K.) and sequencing grade trypsin (Promega, Madison, WI, U.S.A.) following manufacturer’s recommendations. The resulting peptides were finally desalted on to OMIX Pipette tips C18 (Agilent Technologies, Santa Clara, CA, U.S.A.), dried down and stored at −20 °C until mass spectrometry analysis. […] Three micrograms of each protein digest from the three biological replicates of WT and akirin2 KO HL60 cells were used for the generation of the reference spectral ion library as part of the SWATH-MS analysis.
# Peptides were eluted in a 120-min gradient from 5 to 30% solvent B in solvent A followed by 15-min gradient from 30 to 60% solvent B in solvent A (solvent A: 0.1% formic acid in water, solvent B: 0.1% formic acid in acetonitrile) and directly injected into the mass spectrometer for analysis. For IDA experiments, the mass spectrometer was set to scanning full spectra (350–1400 m/z) using 250 ms accumulation time per spectrum, followed by up to 50 MS/MS scans (100–1500 m/z). Candidate ions with a charge state between +2 and +5 counts per second above a minimum threshold of 100 were isolated for fragmentation. One MS/MS spectrum was collected for 100 ms, before adding those precursor ions to the exclusion list for 15 s (mass spectrometer operated by Analyst TF 1.6, AB Sciex). Dynamic background subtraction was turned off. MS/MS analyses were recorded in high-sensitivity mode with rolling collision energy on and a collision energy spread of 5. For SWATH quantitative analysis, six independent samples (three replicates from WT and akirin2 KO HL60 cells, 5 µg each) were subjected to the cyclic DIA of mass spectra using the SWATH variable windows calculator (V 1.0, AB Sciex) and the SWATH acquisition method editor (AB Sciex), similar to established methods. […] For these experiments, a 50-ms survey scan (350–1400 m/z) was acquired at the beginning of each cycle, and SWATH–MS/MS spectra were collected from 100–1500 m/z for 70 ms at high-sensitivity mode, resulting in a cycle time of 3.6 s. Collision energy for each window was determined according to the calculation for a charge +2 ion-centered upon the window with a collision energy spread of 15. […] The detected protein threshold was set at 0.05. […] Global normalization was performed according to the Total Area Sums (TAS) of all detected proteins in the samples. […]
# [1] = SWATH-MS, over-represented in KO
# [2] = KO vs WT, sheet "Under-represented in KO"
Substance,Fold Change [1],Log (Fold Change) [1],Fold Change [2],Log (Fold Change) [2]
Albumin,7.56,0.8785,–,–
sp¦Q9NZI8¦IF2B1_HUMAN,–,–,0.6208,-0.2071
